Data as given in article PMC8437308 (Journal of the American Chemical Society, 2021).

System: Chinese Hamster Ovarian (CHO) cells
Assay: Cell viability after incubation with CHO cells
Conditions: four-hour incubation with CHO cells at 5 μM, 10 μM and 50 μM

## acetamide-glutathione [7c]
  Toxicity towards CHO cells (% cell viability): no appreciable toxicity up to 50 μM
